Results on one substance are retold here after patent US20250122202A1, “EGFR INHIBITOR, PREPARATION METHOD THEREFOR AND USE THEREOF” (SHANDONG NEW TIME PHARMACEUTICAL CO., LTD., priority 2021, published 2025).

Assay [1] relates to A549 EGFR-WT. Briefly: Cell proliferation inhibition experiment (CCK-8), A549. Conditions: read-out: cell proliferation inhibition IC50 (μM) A549, 72 h, Table 5 numeric.
Assay [2] concerns KC-0122:BaF3 EGFR-L858R/T790M/C797S. Briefly: Cell proliferation inhibition experiment (CCK-8), KC-0122. Conditions: read-out: cell proliferation inhibition IC50 (μM) KC-0122, 72 h, Table 5 numeric.
In assay [3] the test system is KC-0116:BaF3 EGFR-Del19/T790M/C797S. Briefly: Cell proliferation inhibition experiment (CCK-8), KC-0116. Conditions: read-out: cell proliferation inhibition IC50 (μM) KC-0116, 72 h, Table 5 numeric.

With “(R)-2-(4-(4-methyl-1-piperazin)-1-phenylamino)-4-(1-cyclopropylsulfonyl-3-piperidinamino)-5-(2-methylpropanoyl)-7H-pyrrolo[2,3-d]pyrimidine”, the figures for the IC50 in assay [1], in assay [2] and in assay [3] were 7 µM, 0.36 µM and 0.65 µM, respectively.
